pEC50, pKi: −log10 of the molar value.
How the values were obtained:
[1] = biological target: T1, Peroxisome proliferator-activated receptor alpha (Homo sapiens, UniProt Q07869); experiment: Maximal reporter activity against human Peroxisome proliferator activated receptor alpha Gal4 chimeric in transiently transfected CV-1 cells by functional assay.; type: cell-based
T1 sequence (Q07869 whole entry): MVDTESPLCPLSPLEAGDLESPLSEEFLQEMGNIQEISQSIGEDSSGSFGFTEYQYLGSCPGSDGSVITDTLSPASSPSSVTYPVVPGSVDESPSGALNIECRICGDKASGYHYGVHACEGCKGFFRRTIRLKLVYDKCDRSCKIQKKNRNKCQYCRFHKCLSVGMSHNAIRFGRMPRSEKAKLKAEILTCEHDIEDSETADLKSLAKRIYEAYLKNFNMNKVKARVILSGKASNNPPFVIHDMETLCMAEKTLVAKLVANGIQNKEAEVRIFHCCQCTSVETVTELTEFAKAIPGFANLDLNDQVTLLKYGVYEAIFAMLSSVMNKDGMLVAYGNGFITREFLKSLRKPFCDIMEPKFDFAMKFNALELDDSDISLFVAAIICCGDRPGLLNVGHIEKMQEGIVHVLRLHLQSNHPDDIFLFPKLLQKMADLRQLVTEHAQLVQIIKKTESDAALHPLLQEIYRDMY

[2] = biological target: T1, Peroxisome proliferator-activated receptor alpha

Row | SMILES | pEC50 [1] | pKi [2]
1 | CCCN[C@@H](Cc1ccc(OCCc2nc(-c3ccccc3)oc2C)cc1)C(=O)O | 6.08 | 7.14
2 | Cc1oc(-c2ccccc2)nc1CCOc1ccc(C[C@H](Nc2ncccn2)C(=O)O)cc1 |  | 5.92
